Measurements published in patent US11504379B2, “Amide compound, and Pin1 inhibitor, therapeutic agent for inflammatory diseases and therapeutic agent for cancer that use the same” (Hiroshima University, priority 2017, dated 2022).

Tested on: non-alcoholic steatohepatitis (NASH) model mice (HFDT)
Assay: NASH treatment study in HFDT-fed NASH model mice
Settings: 8 weeks, oral 5.0 mg/kg/day three times a week, FIG. 1 (C)
Experimental: Animal experiments were performed using non-alcoholic steatohepatitis (NASH) model mice to test the compounds according to the present invention for the therapeutic effect on NASH.
NASH model mice (hereinafter referred to as “NASH mice”) were produced by feeding a high-fat diet containing trans fatty acids (HFDT) to individual male laboratory mice (C57BL/6J) for 8 weeks. […] In addition, a normal diet was given to individual male laboratory mice (C57BL/6J) for 8 weeks to prepare control mice.

Compound: O=C1C=CC(=O)c2c(O)cccc21 [Juglone, reference compound]
- fasting blood glucose level: abnormal increase
